These results are taken from US7402687B2, “Dihydrobenzofuran derivatives and uses thereof” (Wyeth, priority 2005, dated 2008).

The chains behind the UniProt entries cited, without tags or fusion partners. Residues count along the entry.
UniProt P28335, 33-458: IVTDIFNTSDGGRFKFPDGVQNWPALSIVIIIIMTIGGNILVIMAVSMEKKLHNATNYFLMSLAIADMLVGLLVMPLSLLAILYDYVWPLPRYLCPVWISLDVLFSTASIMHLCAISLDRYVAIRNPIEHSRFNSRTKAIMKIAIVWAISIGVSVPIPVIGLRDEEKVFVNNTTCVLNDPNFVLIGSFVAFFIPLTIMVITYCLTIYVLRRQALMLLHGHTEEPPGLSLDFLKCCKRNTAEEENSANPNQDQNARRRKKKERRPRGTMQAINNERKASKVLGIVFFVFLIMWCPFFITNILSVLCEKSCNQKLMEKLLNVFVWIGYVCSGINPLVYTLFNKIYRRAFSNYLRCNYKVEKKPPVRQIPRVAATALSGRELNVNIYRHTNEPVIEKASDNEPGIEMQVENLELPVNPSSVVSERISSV

As a reminder, the Ki is the equilibrium dissociation constant of an inhibitor or competing ligand from its target. For orientation: EC50 means the concentration needed to bring the measured effect to its halfway point.

Assay [1] has as its target T1, human 5-hydroxytryptamine-2C (h5-HT2C) receptor (Homo sapiens, UniProt P28335).
T1 construct: expressed in transfected cells; host or cells: CHO (Chinese Hamster Ovary) cells; membrane preparation
Kind of assay: [125I]DOI competition binding at h5-HT2C receptor in transfected CHO cell membranes. The note with it: [125I]DOI displacement, CHO membranes expressing h5-HT2C; 95% confidence interval in adjacent column.

A further assay deals with human 5-HT2C receptor (Homo sapiens, UniProt P28335). The note with it: calcium mobilization, Fluo-3-AM, CHO cells expressing human 5-HT2C; % of maximal 5-HT response. Background: Calcium assays in cells follow changes in intracellular calcium, usually with a dye or a luminescent sensor.

Turning to `Clc1cccc(N2CCNCC2)c1` [mCPP, meta-chlorophenylpiperazine], the Ki in assay [1] worked out at 6.5 nM. Besides, the EC50 at human 5-HT2C receptor is 5.4 nM.
